Test results reported in ChEMBL document CHEMBL1157126, “Synthesis and biological activity of N(4)-phenylsubstituted-6-(2,4-dichloro phenylmethyl)-7H-pyrrolo[2,3-d]pyrimidine-2,4-diamines as vascular endothelial growth factor receptor-2 inhibitors and antiangiogenic and antitumor agents” (Bioorg Med Chem, 2010).

Chains of the proteins cited; added tags and fusions are not shown.
UniProt P09619, whole entry: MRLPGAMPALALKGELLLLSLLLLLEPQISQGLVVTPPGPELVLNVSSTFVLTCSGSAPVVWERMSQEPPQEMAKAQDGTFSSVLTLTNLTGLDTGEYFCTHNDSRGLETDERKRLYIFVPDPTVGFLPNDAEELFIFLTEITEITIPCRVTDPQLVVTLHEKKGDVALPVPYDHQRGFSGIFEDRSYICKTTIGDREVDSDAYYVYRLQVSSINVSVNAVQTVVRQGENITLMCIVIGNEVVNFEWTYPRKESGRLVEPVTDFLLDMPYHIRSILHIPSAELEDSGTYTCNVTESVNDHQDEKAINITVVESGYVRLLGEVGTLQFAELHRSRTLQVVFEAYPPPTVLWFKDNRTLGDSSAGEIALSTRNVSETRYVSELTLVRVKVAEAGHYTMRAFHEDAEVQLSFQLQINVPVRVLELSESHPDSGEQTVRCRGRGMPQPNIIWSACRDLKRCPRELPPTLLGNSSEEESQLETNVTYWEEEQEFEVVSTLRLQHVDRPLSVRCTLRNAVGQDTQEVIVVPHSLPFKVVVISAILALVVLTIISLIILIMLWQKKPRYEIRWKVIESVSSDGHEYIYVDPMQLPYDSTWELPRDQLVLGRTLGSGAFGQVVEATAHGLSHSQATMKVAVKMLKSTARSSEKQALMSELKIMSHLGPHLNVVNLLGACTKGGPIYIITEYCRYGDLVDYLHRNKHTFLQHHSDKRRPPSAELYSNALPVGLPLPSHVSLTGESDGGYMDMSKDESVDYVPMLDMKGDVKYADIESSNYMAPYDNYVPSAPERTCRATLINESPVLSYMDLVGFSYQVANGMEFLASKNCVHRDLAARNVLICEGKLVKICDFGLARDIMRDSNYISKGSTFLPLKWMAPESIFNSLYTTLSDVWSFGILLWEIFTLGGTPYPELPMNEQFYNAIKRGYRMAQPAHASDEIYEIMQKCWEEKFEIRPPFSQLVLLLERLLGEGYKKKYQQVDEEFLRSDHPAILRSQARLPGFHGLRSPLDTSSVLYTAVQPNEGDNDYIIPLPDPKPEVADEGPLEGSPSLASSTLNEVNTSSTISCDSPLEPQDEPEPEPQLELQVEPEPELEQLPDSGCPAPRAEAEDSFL

Target: Platelet-derived growth factor receptor beta (Homo sapiens, UniProt P09619)
Assay: Inhibition of PDGFRbeta phosphorylation in human SF539 cells after 10 mins by FLISA

- IC50: 3.7 µM
SMILES: CN(C)c1ccc(/C=C2\C(=O)Nc3ccccc32)cc1
